According to ChEMBL document CHEMBL4028801, “A multifactorial approach to hepatobiliary transporter assessment enables improved therapeutic compound development” (Toxicol Sci, 2013):

Assay: Ratio of drug concentration at steady state in human at 400 to 600 mg, po QD after 24 hrs to IC50 for human BSEP overexpressed in Sf9 insect cells
Type: ADME, organism-based
Settings: in vivo

## Cc1ccc(NC(=O)c2ccc(CN3CCN(C)CC3)cc2)cc1Nc1nccc(-c2cccnc2)n1 [IMATINIB]
  Ratio: 0.176
